Screens (PubChem)
miR-21 reporter: raises the signal of a miR-21 reporter | HeLa miR-21 FLuc reporter, luciferase, 48 h | Potency, µM (highest dose often 38.3 µM), without a hit: at the top dose reporter change, positive = more light | 340,000 tested, under 10 active; active = well fitted rising curve with a large enough effect; inconclusive = small, poorly fitted or top-dose-only effect; inactive = no such curve, though single readings can be large or run the other way;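 note: % of control where 0% means no effect; miR-21 action dims this reporter so a rising signal means less miR-21 action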
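Using DMEM plus 10% FBS, HeLa miR-21-FLuc cells are incubated with test compounds (final up to about 40uM) for 48 hours; firefly luciferase signal is then imaged following reagent-mediated lysis.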
p53 reactivation: restores transcriptional activity of mutant p53 | H1299 p53-A138V BP100-luciferase reporter, luminescence, 24 h | Potency, µM (highest dose often 92.2 µM), without a hit: at the top dose activity change, positive = activation, most hits filed as activators | 0.063% of 320,000 active | AID 504706; further: potency means the concentration at half of the fitted maximal effect; % of control where 0% means no effect; nearly all actives have a fitted effect of over 45% in size
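H1299 (p53-null), stable ts p53-A138V + BP100-Luc; 1000 cells/well, Opti-MEM/10% FBS; cpd 4 pt, 1:5; 24 h, 37 deg C, 5% CO2; detection reagent 10 min RT; luminescence.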
A549 tox-1: counter-screen for Nrf2 inhibitors: cytotoxicity in A549 cells | A549 ARE-Fluc cells, CellTiter-Fluor viability, 18-24 h | Potency, µM (doses to about 46 µM), for the others: top-dose activity change, negative = cytotoxicity, most hits filed as inhibitors | 0.16% of 390,000 active | AID 504648; further: potency means the concentration at half of the fitted maximal effect; on the % scale 0 is the no-effect control and ±100 the full control effect
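A549 ARE_Fluc cells in 5% FBS OPTI-MEM were exposed to compounds in concentration-response for 18-24 h at 37 deg C. Viability was read by CellTiter-Fluor fluorescence (Ex 405/Em 525) after 30 min, before the luciferase read.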
Nrf2 block: Nrf2 pathway inhibition | 2.1% of 360,000 active | Potency, µM (doses to about 46 µM), inactives show at the top dose activity change, negative = inhibition, most hits filed as inhibitors | A549 ARE-Fluc reporter, luciferase luminescence, 18-24 h | AID 504444; further: potency means the concentration at half of the fitted maximal effect; on the % scale 0 is the no-effect control and ±100 the full control effect; nearly all actives have a fitted effect of over 60% in size
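Quantitative HTS in A549 cells stably bearing an antioxidant response element-firefly luciferase construct. Inhibition of Nrf2-driven transcription was scored by luminescence after 18-24 h of compound exposure at 37 °C.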
Nrf2 ARE act: Nrf2 pathway activation. AREc32 ARE-luciferase reporter (MCF7-derived line), luminescence, 24 h. Potency, µM (series often up to 46.1 µM), for the others: at the highest dose activation, usual class: activators. 0.31% of 410,000 active; further: potency means the concentration at half of the fitted maximal effect; % of control where 0% means no effect; nearly all actives have a fitted effect of over 65% in size
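Each well held 1000 AREc32 cells, which were incubated with compound for 24 hr at 37 deg C after overnight attachment, and ARE reporter activity was quantified by firefly luciferase luminescence.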
ClpP mod: qHTS Assay for Activators of ClpP | AID 651965, 2013 | ATP-dependent Clp protease proteolytic subunit (Bacillus subtilis (strain 168)), P80244 | purified B. subtilis ClpP, FRET peptide cleavage, 20 min | 1.9% of 340,000 active | Potency, µM (series often up to 57.5 µM), for the others: at the highest dose activity change, negative = active; active means well fitted falling curve with a large enough effect; inconclusive means small, poorly fitted or top-dose-only effect; inactive means no such curve, though single readings can be large or run the other way; further: potency means the concentration at half of the fitted maximal effect; the source files actives as falling curves though it sought activators and does not explain the sign; nearly all actives have a fitted effect of over 65% in size
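Buffer: 100 mM Tris/HCl pH8, 100 mM KCl, 0.05% low protease BSA, 2.5% glycerol, 0.01% Tween-20. ClpP 10 microg/mL final; 20 min RT; delta FRET normalized to ADEP and DMSO controls.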
FLuc enzyme inh: blocks purified firefly luciferase in Nrf2 counterscreen; 4% of 1,400 active; purified firefly luciferase, luminescence inhibition; shares compounds with Nrf2 block; Potency, µM (highest dose often 57.5 µM), without a hit: top-dose activity change, negative = inhibition, most hits filed as inhibitors; further: potency means the concentration at half of the fitted maximal effect; on the % scale 0 is the no-effect control and ±100 the full control effect; nearly all actives have a fitted effect of over 65% in size
A549 tox-2: counter-screen for Nrf2 inhibitors: cytotoxicity in A549 ARE cells. shares compounds with Nrf2 block. A549 ARE-Fluc cells, cytotoxicity counterscreen. Potency, µM (top dose mostly 46.1 µM), inactives show at the highest dose activity change, negative = cytotoxicity, actives largely listed as inhibitors. 2% of 1,400 active;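 further: potency means the concentration at half of the fitted maximal effect; cells exposed to compounds for 18 to 24 hours; on the % scale 0 is the no-effect control and ±100 the full control effect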
ARE-Fluc inh: confirmation of Nrf2 inhibitors in A549 ARE reporter cells; shares compounds with Nrf2 block; A549 ARE-firefly luciferase reporter, luminescence; Potency, µM (series often up to 46.1 µM), without a hit: at the highest dose activity change, negative = inhibition, actives largely listed as inhibitors; 74% of 1,400 active; AID 720524; further: potency means the concentration at half of the fitted maximal effect; on the % scale 0 is the no-effect control and ±100 the full control effect; nearly all actives have a fitted effect of over 65% in size
Numbers without * were called inactive; ? = inconclusive; nt = no result shown. Sampled rows, rich in hits. Any-hit rate of the full collection: about 3.7%. Unless noted, the call rests on the fitted dose curve; in most records, active means well fitted curve in the direction sought with a large enough effect; inconclusive means small, poorly fitted or top-dose-only effect, or another doubt; inactive means no such curve, though single readings can be large; an effect the other way counts as inactive or inconclusive.

SMILES | miR-21 reporter | p53 reactivation | A549 tox-1 | Nrf2 block | Nrf2 ARE act | ClpP mod | FLuc enzyme inh | A549 tox-2 | ARE-Fluc inh
CC(C)OCCCNC(=O)CCCn1c(SCC(=O)c2ccc(F)cc2)nc2c(sc3ccccc32)c1=O | -2% | nt | -4% | 11% | -1% | -23% | nt | nt | nt
COc1cc(C(=O)NCc2cccnc2)ccc1OCC(=O)Nc1cccc(C(F)(F)F)c1 | nt | -3% | 2% | 6.5µM* | 3% | -4% | 2% | -8% | 16µM*
CCOc1ccc(NC(=O)COc2ccc(C(=O)NCc3cccnc3)cc2OC)cc1 | nt | -4% | -4% | -20% | 0% | 0% | nt | nt | nt
CN(c1ccccc1)c1nc(C#N)nc(N2CCOCC2)n1 | nt | nt | -8% | 8.2µM* | nt | 2% | -23% | -12% | ?
CCCC(=O)Nc1nc(-c2ccc3c(c2)CCN3S(C)(=O)=O)cs1 | 7% | 8% | -13% | 8.2µM* | 6% | 1% | ? | -15% | ?
CC(=O)NCC(=O)NC1CCCc2c1cnn2-c1ccc(C(C)(C)C)cc1 (stereo not given) | -1% | -9% | -6% | ? | -1% | nt | nt | nt | nt
CC(C)(C)c1ccc(-n2ncc3c2CCCC3NC(=O)C2(C(N)=O)CC2)cc1 (stereo not given) | 12% | 0% | -7% | 1.3µM* | 0% | 0% | -17% | -7% | nt
O=NN(C(=O)NCc1cccnc1)C1CCCCC1 | nt | nt | nt | nt | -1% | 0% | nt | nt | nt
Cc1ccc(-n2nc(C)c3c(C)cc(=O)n(CC(=O)NCc4ccc(OC(C)C)cc4)c32)cc1 | 0% | nt | 20% | ? | 0% | -7% | nt | nt | nt
Cn1cc(S(=O)(=O)N2CCc3ccccc32)cc1C(=O)NC(C)(C)C | 21% | 11% | -12% | 2.1µM* | -1% | 1% | 3% | -7% | 4.6µM*
CS(=O)(=O)NNC(=O)c1sccc1OCc1ncc(C(F)(F)F)cc1Cl | -2% | -3% | 15% | 4% | 1% | nt | nt | nt | nt
O=S(=O)(c1ccccc1)N1CCC(O)(CSc2ccc(Cl)cc2)CC1 | 19% | -6% | -9% | 9.2µM* | 0% | 1% | 3% | -4% | nt
Cc1ccc(C(=O)N2CCN(c3ccc(C(F)(F)F)cn3)CC2)cc1 | 1% | -3% | -11% | -30% | -1% | ? | nt | nt | nt
Cc1ccccc1SCC(=O)N1CCN(c2ccc(C(F)(F)F)cn2)CC1 | -1% | -5% | -1% | 3.7µM* | 1% | -3% | -1% | -4% | ?
Cc1cc(NC(=O)c2cc(-c3ccc(Cl)cc3)on2)n(-c2ccccc2)n1 | -7% | nt | -10% | -11% | -1% | 1% | nt | nt | nt
Fc1ccc2[nH]c3c(N4CCc5ccccc5C4)ncnc3c2c1 | ? | -1% | ? | 7.3µM* | 4% | nt | -15% | -16% | nt
Cc1ccc(-n2ncc3c(N4CCN(C)CC4)ncnc32)cc1Cl | -60% | nt | 5% | nt | 5% | 1% | nt | nt | nt
COc1ccc(C)cc1NC(=O)C1CCC(CNS(=O)(=O)c2ccc3c(c2)CCCC(=O)N3)CC1 (stereo not given) | 28% | nt | ? | 7.3µM* | 1% | -2% | 1% | 1% | 7.3µM*
COc1cc(NC(=O)CSc2ccc(-c3sc(-c4ccccc4)nc3C)nn2)cc(OC)c1 | -5% | nt | 0% | 16% | 7% | -20% | nt | nt | nt
